According to ChEMBL document CHEMBL3400139, “trans-(3S,4S)-Disubstituted pyrrolidines as inhibitors of the human aspartyl protease renin. Part I: prime site exploration using an amino linker” (Bioorg Med Chem Lett, 2015):

Assays:
[1] = Efflux ratio of permeability from basolateral to apical side over apical to basolateral side in human Caco2 cells; format: ADME, cell-based; details: Caco-2
[2] = species on record: Homo sapiens; assay: Half life in human liver microsomes using compound depletion approach
[3] = Half life in rat liver microsomes using compound depletion approach; format: ADME

| efflux ratio [1] | half-life [2] | half-life [3] | Structure (SMILES) |
| --- | --- | --- | --- |
| 110 | 11.3 min | – | COCCCOc1cc(C(=O)N(C[C@@H]2CNC[C@H]2NCc2ccc3ccccc3c2)C(C)C)ccc1OC |
| – | > 65 min | > 65 min | COCCCOc1cc(C(=O)N(C[C@@H]2CNC[C@H]2NC(=O)CC2CCOCC2)C(C)C)ccc1OC |
| 8 | 11.3 min | – | COCCCOc1cc(C(=O)N(C[C@@H]2CNC[C@H]2NC(=O)OCC2CCCCC2)C(C)C)ccc1OC |
| – | > 65 min | > 65 min | COCCCOc1cc(C(=O)N(C[C@@H]2CNC[C@H]2NS(=O)(=O)CC2CCOCC2)C(C)C)ccc1OC |
| 62 | 17.4 min | – | COCCCOc1cc(C(=O)N(C[C@@H]2CNC[C@H]2NS(=O)(=O)Cc2ccccc2)C(C)C)ccc1OC |
| 1.4 | 22.3 min | – | COCCCOc1cc(C(=O)N(C[C@@H]2CNC[C@H]2NC(=O)CCc2ccccc2)C(C)C)ccc1OC (racemic) |
